{"sequences": {"note": "Chains of the proteins cited; added tags and fusions are not shown.", "UniProt P08588, whole entry, looked up": "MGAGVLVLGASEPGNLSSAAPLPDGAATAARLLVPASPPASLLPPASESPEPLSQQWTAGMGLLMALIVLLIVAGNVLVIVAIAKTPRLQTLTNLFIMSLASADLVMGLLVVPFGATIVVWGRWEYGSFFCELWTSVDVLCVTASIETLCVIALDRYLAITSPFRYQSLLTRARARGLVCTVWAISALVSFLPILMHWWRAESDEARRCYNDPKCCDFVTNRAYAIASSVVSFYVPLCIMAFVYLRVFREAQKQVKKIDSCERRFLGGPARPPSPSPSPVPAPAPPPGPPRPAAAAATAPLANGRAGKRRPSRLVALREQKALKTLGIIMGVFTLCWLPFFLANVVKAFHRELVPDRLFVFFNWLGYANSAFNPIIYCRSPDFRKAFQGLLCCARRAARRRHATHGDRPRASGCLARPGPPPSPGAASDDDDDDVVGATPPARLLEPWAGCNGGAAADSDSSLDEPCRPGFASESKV"}, "source": "patent US20250248979A1", "about": "“NOVEL GPX4 INHIBITORS AND USES THEREOF” (THE TRUSTEES OF COLUMBIA UNIVERSITY IN THE CITY OF NEW YORK, priority 2022, published 2025)", "target": "panel of 44 targets (GPCRs, ion channels, enzymes, transporters, nuclear receptors) (Homo sapiens, UniProt P08588)", "note": "pIC50: −log10 of the molar value.", "data": [{"smiles": "C=CCc1ccccc1OCC(O)CNC(C)C", "note": "(stereo not shown) [Alprenolol]", "values": [{"measurement": "pIC50", "result": 7.36}]}]}
